From published antibiotic growth screens (doi:10.1038/s41589-023-01349-8)
The other results are listed elsewhere or left out.

system: A. baumannii ATCC 17978; test: relative growth (fraction of control); higher = less inhibition; conditions: 50 µM

Q: O=C(CCn1ccc(=O)[nH]c1=O)Nc1ccc2c(c1)NC(=O)CO2 was tested. Which relative growth did it give?
A: 0.891

Q: Which relative growth does the source give for COc1cc2ncnc(Nc3ccc(F)c(Cl)c3)c2cc1OCCCN1CCOCC1 here?
A: 1.04

Q: With C/C(C[P+](c1ccccc1)(c1ccccc1)c1ccccc1)=N\NC(=O)CCCCCCC(=O)Nc1ccccc1O as the compound, how does the relative growth read?
A: 0.869

Q: How did the relative growth turn out when CO[C@@H](CN(C)C(=O)Nc1ccc(C(F)(F)F)cc1)[C@@H](C)CN(Cc1ccccc1Cl)[C@@H](C)CO was run?
A: 0.598

Q: How did the relative growth turn out when COc1ccc(CNCC(=O)O)cc1 was run?
A: 1.04

Q: With [N-]=[N+]=Nc1ccccc1[C@H]1OC(c2ccc(OCCCO)cc2)=N[C@@]1(CCS(=O)(=O)c1ccccc1)C(=O)NCc1ccccc1 as the compound, how does the relative growth read?
A: 1.01

Q: CCC(=O)Nc1nn2c(C)nnc2s1 was tested. Which relative growth did it give?
A: 0.924

Q: C[C@]12CCC(=O)C=C1CCC1C2[C@@H](O)C[C@@]2(C)C1CC[C@]2(O)C(=O)COC(=O)CCC(=O)O (some centres undefined) was tested. Which relative growth did it give?
A: 1.15

Q: NC(=O)CCN1C(=O)[C@@H]2[C@@H](C1=O)[C@@H]1C=C[C@@H]2C1 was tested. Which relative growth did it give?
A: 0.985

Q: For O=C(C[C@@H]1CC[C@@H]2[C@H](COC[C@@H](O)CN2C(=O)c2ccc3c(c2)OCO3)O1)NCCN1CCCC1, which relative growth is on record?
A: 0.983

Q: O.O=C(O)[C@@H]1[C@H]2C[C@H]3c4[nH]c5ccccc5c4CCN3C[C@@H]2CC[C@@H]1O was tested. Which relative growth did it give?
A: 0.92

Q: Which relative growth does the source give for CNC(=O)Cn1c(=O)c2c(OC)ccnc2n(C)c1=O here?
A: 1.01

Q: With NC(=O)Nc1ccc(C(=O)O)cc1 as the compound, how does the relative growth read?
A: 1.23

Q: For COC(=O)C(CC#Cc1ccc2c(c1)[C@]1(C(=O)N2)[C@H](c2ccc(O)cc2)N2[C@H](c3ccccc3)[C@H](c3ccccc3)OC(=O)[C@H]2[C@@H]1C(=O)NC[C@H](O)c1ccccc1)C(=O)OC, which relative growth is on record?
A: 0.986

Q: Which relative growth does the source give for CC(C)=CCc1c2c(c3occ(-c4ccc(O)cc4)c(=O)c3c1O)C=CC(C)(C)O2 here?
A: 0.834

Q: CN1CCN(c2c(F)cc3c(=O)c(C(=O)O)cn4c3c2SCC4)CC1 was tested. Which relative growth did it give?
A: 0.139

Q: For CN1CCN(S(C)(=O)=O)CC1, which relative growth is on record?
A: 0.932

Q: Which relative growth does the source give for CCC(=O)N[C@H]1CC[C@@H](CC(=O)OC)O[C@@H]1CO here?
A: 1.07

Q: With COC(=O)C1=C(C)NC(C)=C(C(=O)OCC(C)C)C1c1ccccc1[N+](=O)[O-] (centres undefined) as the compound, how does the relative growth read?
A: 1.16

Q: With O=C(C[C@H]1CC[C@@H](NS(=O)(=O)c2ccccc2F)[C@@H](CO)O1)NCCCN1CCOCC1 as the compound, how does the relative growth read?
A: 0.888

Q: For CN(C/C=C/C#CC(C)(C)C)Cc1cccc2ccccc12.Cl, which relative growth is on record?
A: 1.12

Q: With CCCNC(=O)N1C[C@H](O)COC[C@H]2O[C@@H](CC(=O)N3CCOCC3)CC[C@@H]21 as the compound, how does the relative growth read?
A: 0.809

Q: With COc1ccccc1-c1ccc2c(c1)O[C@H](CN(C)C(=O)c1ccncc1)[C@@H](C)CN([C@H](C)CO)S2(=O)=O as the compound, how does the relative growth read?
A: 1.13

Q: For O=c1cc(-c2ccc(O)cc2)oc2cc(O)ccc12, which relative growth is on record?
A: 1.08

Q: COCCNC(=O)C[C@@H]1C[C@@H]2c3cc(NC(=O)COC)ccc3O[C@@H]2[C@@H](CO)O1 was tested. Which relative growth did it give?
A: 0.966

Q: Which relative growth does the source give for Cn1c(=O)[nH]c2nnc(-c3ccccn3)nc2c1=O here?
A: 0.633

Q: How did the relative growth turn out when O=c1c2ccccc2oc2ccc(O)cc12 was run?
A: 1.1

Q: NC(=O)NC1NC(=O)NC1=O (centres undefined) was tested. Which relative growth did it give?
A: 0.883

Q: How did the relative growth turn out when O=C(CN1CCOCC1)NCC[C@@H]1CC[C@H](NC(=O)Nc2ccccc2)[C@@H](CO)O1 was run?
A: 1.09

Q: How did the relative growth turn out when CC/C=C\CC1=C(C)CCC1=O was run?
A: 1.04

Q: Which relative growth does the source give for Cn1cnc(CCNC(=O)C[C@H]2CC[C@@H]3[C@H](COC[C@H](O)CN3C(=O)Nc3ccc(Cl)cc3)O2)c1 here?
A: 0.945

Q: How did the relative growth turn out when C[C@@H]1CN([C@H](C)CO)S(=O)(=O)c2ccc(C#Cc3ccccc3)cc2O[C@@H]1CN(C)C(=O)CN(C)C was run?
A: 0.803

Q: Which relative growth does the source give for O=C1CCc2ccc(OCCCCN3CCN(c4cccc(Cl)c4Cl)CC3)cc2N1 here?
A: 0.795

Q: How did the relative growth turn out when CCC(/C=C/[C@@H](C)[C@H]1CCC2C3CC=C4C[C@@H](O)CC[C@]4(C)C3CC[C@@]21C)C(C)C (some centres undefined) was run?
A: 0.925

Q: For O=C(C[C@@H]1CC=CC[C@@H](NC(=O)OCC2c3ccccc3-c3ccccc32)C(=O)OC[C@@H](Cc2ccccc2)NC1=O)N[C@@H](CO)Cc1ccccc1, which relative growth is on record?
A: 0.922

Q: How did the relative growth turn out when O=C(C[C@@H]1C=C[C@H](NC(=O)c2cccnc2)[C@H](CO)O1)NCc1ccncn1 was run?
A: 0.867

Q: COc1ccc([Si](C)(C)[C@@H]2[C@@H](CCn3cc([C@H](O)c4ccccc4)nn3)O[C@]3(C(=O)N(C)c4c(Br)cc(C)cc43)[C@H]2C)cc1 was tested. Which relative growth did it give?
A: 1.23

Q: With COc1ccc2ccccc2c1-c1c(OC)ccc2ccccc12 as the compound, how does the relative growth read?
A: 1.15

Q: COc1c2ccoc2cc2oc(=O)ccc12 was tested. Which relative growth did it give?
A: 1.03

Q: For NC1CCN(Cc2nc3ccccc3[nH]2)CC1, which relative growth is on record?
A: 0.982

Q: CCOC(=O)c1sc(=NN)[nH]c1C was tested. Which relative growth did it give?
A: 1

Q: For NCC[C@H]1CC[C@@H](NC(=O)NC2CCCCC2)[C@H](CO)O1, which relative growth is on record?
A: 1.12

Q: How did the relative growth turn out when CN(C)CCCNC(=O)C[C@@H]1CC[C@@H](NS(=O)(=O)c2ccccc2)[C@H](CO)O1 was run?
A: 1.04

Q: Which relative growth does the source give for CC(C)CC#Cc1ccc2c(c1)O[C@@H](CN(C)C(=O)c1cnccn1)[C@@H](C)CN([C@H](C)CO)S2(=O)=O here?
A: 0.967

Q: For Cc1ccccc1S(=O)(=O)N1C[C@H](O)COC[C@H]2O[C@@H](CC(=O)N3CCC(Cc4ccccc4)CC3)CC[C@@H]21, which relative growth is on record?
A: 0.873

Q: Which relative growth does the source give for CCC(=O)O[C@H](CC(=O)O)C[N+](C)(C)C.[Cl-] here?
A: 0.947

Q: Cc1ccccc1S(=O)(=O)N1C[C@H](O)COC[C@H]2O[C@@H](CC(=O)NCc3ccccc3Cl)CC[C@@H]21 was tested. Which relative growth did it give?
A: 0.86

Q: How did the relative growth turn out when CC[C@@H](Nc1n[nH]c(=O)[nH]c1=O)C(=O)OC was run?
A: 1.08

Q: For CCOC(=O)Cn1c(=O)c(C(N)=S)cn(C(C)C)c1=O, which relative growth is on record?
A: 0.937

Q: For CCN1C(=O)C(N=O)N(CC)C1=S (centres undefined), which relative growth is on record?
A: 0.936

Q: With CN(C)CCC=C1c2ccccc2C=Cc2ccccc21.Cl as the compound, how does the relative growth read?
A: 0.822

Q: How did the relative growth turn out when Cc1ccc(S(=O)(=O)N(C)C[C@H]2Oc3cc(C#Cc4ccccc4)ccc3S(=O)(=O)N([C@H](C)CO)C[C@@H]2C)cc1 was run?
A: 1.1

Q: For N=c1c(C(N)=S)cnc2ccccn12, which relative growth is on record?
A: 1.04

Q: O=C1C(O)=C([C@H]2CC[C@H](c3ccc(Cl)cc3)CC2)C(=O)c2ccccc21 was tested. Which relative growth did it give?
A: 1.4

Q: CN1CCOC(c2ccccc2)c2ccccc2C1 (centres undefined) was tested. Which relative growth did it give?
A: 0.868

Q: COCC#Cc1ccc2c(c1)O[C@H](CN(C)S(=O)(=O)c1cccc(F)c1)[C@H](C)CN([C@H](C)CO)S2(=O)=O was tested. Which relative growth did it give?
A: 0.742

Q: C[C@@H]1CN([C@@H](C)CO)S(=O)(=O)c2ccc(C#C[C@@H](C)O)cc2O[C@H]1CN(C)C(=O)C1CCCCC1 was tested. Which relative growth did it give?
A: 0.949

Q: How did the relative growth turn out when CN1CCCN=C1/C=C/c1cccc(O)c1.O=C(O)c1cc2ccccc2c(Cc2c(O)c(C(=O)O)cc3ccccc23)c1O was run?
A: 1.03

Q: With NCC[C@@H]1CC[C@@H](NC(=O)NC2CCCCC2)[C@@H](CO)O1 as the compound, how does the relative growth read?
A: 0.926

Q: c1ccc(-c2nc(-c3cccs3)[nH]c2-c2ccccc2)cc1 was tested. Which relative growth did it give?
A: 1.33

Q: With COCCNC(=O)C[C@H]1CC[C@H]2[C@@H](COC[C@@H](O)CN2C(=O)Nc2ccccc2OC)O1 as the compound, how does the relative growth read?
A: 1.05

Q: For CC(O)C(N)C(=O)O (centres undefined), which relative growth is on record?
A: 0.945

Q: With Cc1ccc(S[C@]2(C(=O)NC3CC3)CC(=O)N(Cc3cc(C(F)(F)F)cc(C(F)(F)F)c3)[C@@H]2c2ccc(CO)cc2)cc1 as the compound, how does the relative growth read?
A: 0.942

Q: How did the relative growth turn out when O=C1O[C@@H](c2ccccc2)[C@@H](c2ccccc2)N2[C@@H](c3ccc(O)cc3)[C@]3(C(=O)Nc4ccc(C#CC5(O)CCCCCC5)cc43)[C@@H](C(=O)N3CCN(c4ncccn4)CC3)[C@H]12 was run?
A: 0.866

Q: CO[C@H]1CN(C)C(=O)c2cc(NC(=O)c3ccc(F)cc3)ccc2OC[C@@H](C)N(C(=O)CN(C)C)C[C@@H]1C was tested. Which relative growth did it give?
A: 1.02

Q: How did the relative growth turn out when O=C(C[C@@H]1CC[C@@H]2[C@H](COC[C@H](O)CN2S(=O)(=O)c2ccc(Cl)cc2)O1)NCCN1CCCCC1 was run?
A: 1.01

Q: Which relative growth does the source give for Cc1nn(C)cc1NC(=O)C[C@H]1CC[C@H]2[C@H](COc3ccc(NC(=O)C4CCOCC4)cc3C(=O)N2C)O1 here?
A: 0.959

Q: CO[C@@H]1CN(C)C(=O)c2ccc(NC(=O)C3CC3)cc2OC[C@@H](C)N(C(=O)C2CCOCC2)C[C@@H]1C was tested. Which relative growth did it give?
A: 0.997

Q: How did the relative growth turn out when CCCC#Cc1ccc2c(c1)O[C@H](CN(C)C(=O)c1cnccn1)[C@@H](C)CN([C@@H](C)CO)S2(=O)=O was run?
A: 1.16

Q: Which relative growth does the source give for CCc1c(C)[nH]c(=S)c(C#N)c1C here?
A: 1.1

Q: O=C(CN1CCOCC1)NCC[C@H]1CC[C@@H](NC(=O)c2ccccc2F)[C@@H](CO)O1 was tested. Which relative growth did it give?
A: 0.954

Q: Which relative growth does the source give for O=C(C[C@H]1CC[C@H]2[C@@H](COC[C@@H](O)CN2S(=O)(=O)c2ccc(F)cc2)O1)N[C@@H]1CCN(Cc2ccccc2)C1 here?
A: 1.01

Q: Which relative growth does the source give for CC1(C)CC[C@]2(C(=O)O)CC[C@]3(C)C(=CCC4[C@@]5(C)CC[C@@H](O)C(C)(C)C5CC[C@]43C)C2C1 (some centres undefined) here?
A: 0.857

Q: Which relative growth does the source give for Br.CN(C)CCCC1(c2ccc(F)cc2)OCc2cc(C#N)ccc21 (centres undefined) here?
A: 1.14

Q: With CC1C2C(CC3C4CC[C@H]5C[C@@H](O)CC[C@]5(C)C4CC(=O)[C@@]32C)O[C@]12CC[C@@H](C)CO2 (some centres undefined) as the compound, how does the relative growth read?
A: 1.07

Q: For CC(C)[C@@H](C(=O)O)n1cnnn1, which relative growth is on record?
A: 1.1

Q: For Cc1cc(N)c2ccccc2[n+]1CCCCCCCCCC[n+]1c(C)cc(N)c2ccccc21.[Cl-].[Cl-], which relative growth is on record?
A: 0.994

Q: With O=C(C[C@@H]1C=C[C@H](NC(=O)C2CCC2)[C@H](CO)O1)NCCCN1CCOCC1 as the compound, how does the relative growth read?
A: 0.904

Q: CO[C@H](CN(C)S(=O)(=O)c1cn(C)cn1)[C@H](C)CN(C(=O)Nc1ccc(C(F)(F)F)cc1)[C@@H](C)CO was tested. Which relative growth did it give?
A: 0.995

Q: Which relative growth does the source give for COC[C@@H]1CNN1C(=O)OC(C)(C)C here?
A: 1.14

Q: For COc1ccc([C@@H]([C@H](Cc2ccccc2)OC(C)=O)N2C[C@@H](NC(=O)C(Cl)(Cl)Cl)[C@@H]3C(=NO[C@H]3c3ccccc3)[C@@H]2Cc2ccccc2)cc1, which relative growth is on record?
A: 0.998

Q: Which relative growth does the source give for COC[C@H]1CN(C(=O)c2ccccn2)N1 here?
A: 1.06

Q: O=C(Cn1cnnn1)N[C@@H]1C(=O)N2C(C(=O)O)=C(CSc3nncs3)CS[C@H]12 was tested. Which relative growth did it give?
A: 0.672

Q: Which relative growth does the source give for C=CC[C@@H](CC(=O)N[C@H](CO)Cc1ccccc1)C(=O)NC[C@@H](OC(=O)[C@@H](CC=C)Cc1ccc(F)cc1)c1ccccc1 here?
A: 0.932
